This note sets out measurements from ChEMBL document CHEMBL4699583 (J Med Chem, 2020).

Chains of the proteins cited; added tags and fusions are not shown. Lines headed by an entry give the natural chain unless they say otherwise; changes in a name come on top.
UniProt P11388: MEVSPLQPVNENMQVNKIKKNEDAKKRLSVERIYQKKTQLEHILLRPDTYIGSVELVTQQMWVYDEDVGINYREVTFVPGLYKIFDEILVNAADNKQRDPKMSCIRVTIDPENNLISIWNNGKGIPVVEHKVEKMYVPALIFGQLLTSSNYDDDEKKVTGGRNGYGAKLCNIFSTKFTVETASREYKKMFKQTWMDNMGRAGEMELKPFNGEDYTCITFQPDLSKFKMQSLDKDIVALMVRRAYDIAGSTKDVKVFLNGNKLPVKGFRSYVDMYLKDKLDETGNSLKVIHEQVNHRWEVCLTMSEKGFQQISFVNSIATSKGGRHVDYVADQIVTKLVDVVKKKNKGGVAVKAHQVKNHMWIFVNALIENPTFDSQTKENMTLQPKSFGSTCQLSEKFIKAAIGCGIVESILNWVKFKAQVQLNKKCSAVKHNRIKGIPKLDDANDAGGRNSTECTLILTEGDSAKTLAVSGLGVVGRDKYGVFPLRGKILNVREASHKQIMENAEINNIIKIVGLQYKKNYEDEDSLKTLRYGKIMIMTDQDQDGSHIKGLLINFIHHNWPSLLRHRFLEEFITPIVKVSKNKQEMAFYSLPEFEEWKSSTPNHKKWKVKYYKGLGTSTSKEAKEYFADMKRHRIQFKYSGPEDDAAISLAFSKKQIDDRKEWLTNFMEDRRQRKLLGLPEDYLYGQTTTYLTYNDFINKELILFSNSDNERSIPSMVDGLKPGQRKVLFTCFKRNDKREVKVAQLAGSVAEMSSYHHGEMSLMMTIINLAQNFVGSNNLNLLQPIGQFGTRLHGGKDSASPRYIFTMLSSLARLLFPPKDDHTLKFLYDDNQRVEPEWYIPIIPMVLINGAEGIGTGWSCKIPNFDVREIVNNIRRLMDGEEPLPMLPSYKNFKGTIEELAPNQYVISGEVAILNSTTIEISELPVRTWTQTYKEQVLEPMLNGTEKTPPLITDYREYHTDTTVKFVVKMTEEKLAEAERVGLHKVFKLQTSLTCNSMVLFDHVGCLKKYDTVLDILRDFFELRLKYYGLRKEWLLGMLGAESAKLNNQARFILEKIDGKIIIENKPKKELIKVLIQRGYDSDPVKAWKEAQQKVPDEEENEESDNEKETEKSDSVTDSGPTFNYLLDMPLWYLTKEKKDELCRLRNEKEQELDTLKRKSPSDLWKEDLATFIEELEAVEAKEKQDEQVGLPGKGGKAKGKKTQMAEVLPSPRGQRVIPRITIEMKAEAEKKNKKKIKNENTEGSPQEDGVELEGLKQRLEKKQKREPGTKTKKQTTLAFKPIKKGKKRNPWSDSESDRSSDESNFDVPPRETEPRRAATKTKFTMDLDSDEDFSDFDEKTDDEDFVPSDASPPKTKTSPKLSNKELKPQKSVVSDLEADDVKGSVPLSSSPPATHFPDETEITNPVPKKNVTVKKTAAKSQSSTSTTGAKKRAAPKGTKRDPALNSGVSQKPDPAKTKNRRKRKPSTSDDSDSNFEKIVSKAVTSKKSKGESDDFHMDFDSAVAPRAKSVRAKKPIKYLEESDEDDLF

The target in test [1] is T1, DNA topoisomerase 2-alpha (Homo sapiens, UniProt P11388). The experiment in a line: Inhibition of human topoisomerase 2alpha ATPase activity assessed as ATP hydrolysis in presence of [gamma32P]ATP and absence of supercoiled pBR322 as substrate at 5 to 20 uM as substrate incubated for 8 mins by chromatography analysis. Conditions: dose microM 5-25, time 8.0 min.
Test [2] deals with T1, DNA topoisomerase 2-alpha. Description: Inhibition of human topoisomerase 2alpha ATPase activity assessed as ATP hydrolysis in presence of [gamma32P]ATP and supercoiled pBR322 as substrate at 5 to 25 uM as substrate incubated for 8 mins by chromatography analysis. Conditions: dose microM 5-25, time 8.0 min.

Active and inactive are the calls of the source. The calls are words filed in the database; no cut-off is given here.

For the molecule `CN(C)c1ccc(Nc2nc(-c3ccncc3)nc3c2CC(N)CC3)cc1` (configuration not stated), in test [1], the inhibition entry was “inactive”. For the same molecule, the inhibition entry in test [2] was “Active”.
